Results as given in article PMC9127112, “Opening opportunities for Kd determination and screening of MHC peptide complexes” (Communications Biology, 2022).

Tests used:
[1] = target: empty disulfide-stabilized HLA-A*02:01(Y84C/A139C) complex of heavy chain and beta-2 microglobulin (human); experiment: native MS
[2] = target: empty disulfide-stabilized HLA-A*02:01(Y84C/A139C) complex of heavy chain and beta-2 microglobulin (human); experiment: nanoscale differential scanning fluorimetry (nDSF, thermal stabilisation)
[3] = target: empty disulfide-stabilized HLA-A*02:01(Y84C/A139C) in complex with beta-2 microglobulin (human); experiment: isothermal analysis of nanoscale differential scanning fluorimetry (iDSF)
[4] = target: empty disulfide-stabilized HLA-A*02:01(Y84C/A139C) in complex with beta-2 microglobulin (human); experiment: native MS

Ac-NV9, NV9 with an acetylated N-terminus (peptide)
percent of dsA2 as dsA2/pep (AUC) [1]: 57% | ∆Tm [2]: 7.5 K

NV9 ([…]), A2 epitope from human cytomegalovirus pp65 (peptide)
Kd [3]: 40 nM | Kd [4]: 60 nM

NV9-NH2, NV9 with amidated C-terminus (peptide)
Kd [3]: 1 nM | Kd [4]: 10000 nM
